Results as given in ChEMBL document CHEMBL3769306, “Discovery of Molecular Therapeutics for Glaucoma: Challenges, Successes, and Promising Directions” (J Med Chem, 2016).

Sequences of proteins named here, by UniProt entry; tags and fusion partners are left off.
UniProt P0DMS8, whole entry: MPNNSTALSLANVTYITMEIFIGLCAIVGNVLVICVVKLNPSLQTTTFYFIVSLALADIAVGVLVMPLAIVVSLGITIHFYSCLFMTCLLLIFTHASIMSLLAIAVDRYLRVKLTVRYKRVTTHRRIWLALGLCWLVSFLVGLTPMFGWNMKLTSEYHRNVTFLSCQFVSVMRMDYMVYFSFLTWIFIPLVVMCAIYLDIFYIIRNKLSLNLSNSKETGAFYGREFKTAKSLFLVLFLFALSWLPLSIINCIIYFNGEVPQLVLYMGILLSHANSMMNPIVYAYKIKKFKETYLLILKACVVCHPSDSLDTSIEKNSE

Biological target: Adenosine receptor A3 (Homo sapiens, UniProt P0DMS8)
Assay: Binding affinity to adenosine A3 receptor (unknown origin)

Structure (SMILES): C[C@H](Cc1ccccc1)Nc1ncnc2c1ncn2[C@@H]1O[C@H](CO)[C@@H](O)[C@H]1O [(R)-PIA]
- Ki: 16 nM
